Measurements reported in article PMC11374477 (Journal of the American Chemical Society, 2024).

Amino acid sequences for entries named in this document (tags omitted). Residues count along the entry.
UniProt Q9XJ43, 1-343: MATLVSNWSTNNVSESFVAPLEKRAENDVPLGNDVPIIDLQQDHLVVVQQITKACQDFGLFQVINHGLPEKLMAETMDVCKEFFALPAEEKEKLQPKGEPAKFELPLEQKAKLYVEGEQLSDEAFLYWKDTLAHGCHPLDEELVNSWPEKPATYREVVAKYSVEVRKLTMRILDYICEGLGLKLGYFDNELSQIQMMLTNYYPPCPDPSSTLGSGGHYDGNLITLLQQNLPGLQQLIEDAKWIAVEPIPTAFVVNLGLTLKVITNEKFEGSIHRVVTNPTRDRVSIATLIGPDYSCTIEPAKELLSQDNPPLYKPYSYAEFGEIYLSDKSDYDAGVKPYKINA

Target: AbH6H (Atropa belladonna, UniProt Q9XJ43)
Conditions: Fe(II)-succinate-Sco product complex

CN1[C@@H]2CC(OC(=O)[C@H](CO)c3ccccc3)C[C@H]1[C@@H]1O[C@@H]12 (stereo partly shown) [Sco, scopolamine]
X-ray crystallography: we also solved the structure of the AbH6H•Fe^II•succ•Sco product complex
